# In PubChem BioAssay AID487 (Columbia University Molecular Screening Center, 2006):
# Only a part is listed here, and it is no random draw. Active and inactive are the calls of the source.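 The calls were made as follows: active = visually confirmed hit in the image check and inhibition above 20%; inconclusive = visually confirmed hit but inhibition not above 20%; inactive = no visual hit in the image check.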
# Assay: inhibitors of E-selectin induction by TNFa, primary screen, imaging, HUVEC, immunofluorescence, MLSMR starter and 10KST1 sets (AID 487);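 also: signal is fraction of cell area covered by stained E-selectin grains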
# Details: HUVEC TNFalpha-induced E-selectin immunofluorescence imaging; at 2 µM; hits give high values
row,Structure (SMILES),inhibition
1,O=P(Nc1nccs1)(c1ccccc1)c1ccccc1,inactive: -91.6%
2,O=C(COc1ccccc1)OC1CN2CCC1CC2 (configuration not stated),inactive: -60%
3,COP1(=S)c2c(C)nn(CCC#N)c2N=C(c2ccc(F)cc2)N1C (configuration not stated),inactive: -4.6%
4,CCOP1(=S)c2c(C)nn(CCC#N)c2N=C(c2ccccc2F)N1C (configuration not stated),inactive: -14.6%
5,Cc1cccc(OCC(=O)OC2CN3CCC2CC3)c1 (configuration not stated),inactive: -60.7%
6,Cc1ccc(OCC(=O)OC2CN3CCC2CC3)cc1 (configuration not stated),inactive: 18.1%
7,Cc1nn(-c2ccccc2)c2c1P(=O)(N1CCOCC1)N(C)C(c1ccccc1)=N2 (configuration not stated),inactive: -23.6%
